Antibody variant affinities, Ab-14 light chain, assay B

From the AlphaSeq antibody data of Li et al. 2023 (doi:10.1038/s41467-023-39022-2), copy in the FLAb collection.

Target: peptide PDVDLGDISGINAS, taken from heptad repeat 2 (HR2) of SARS-CoV-2 spike.

Ab-14 is the parent antibody, in scFv form: VH, then a (GGGGS)3 linker, then VL. The heavy chain is unchanged in all variants.
VH: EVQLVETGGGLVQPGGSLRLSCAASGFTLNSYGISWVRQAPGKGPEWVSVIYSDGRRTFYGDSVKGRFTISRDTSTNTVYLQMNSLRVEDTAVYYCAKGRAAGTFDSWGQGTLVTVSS
VL: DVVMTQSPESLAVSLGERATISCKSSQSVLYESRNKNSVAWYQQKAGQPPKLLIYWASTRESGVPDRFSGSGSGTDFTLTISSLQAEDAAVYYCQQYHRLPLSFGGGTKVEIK

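This is the validation round: designs drawn from the data on random variants, tested in the same kind of assay. Several design methods are mixed in this list. The scFvs were displayed on barcoded MATa yeast, the peptide on MATalpha yeast. Mating (16 h, 30 °C) was followed by selection of diploids and sequencing of their barcodes. A regression on co-assayed BCL2-family reference pairs converts the normalised counts of each replicate to an apparent Kd. Each pool was mated in six replicate cultures.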

Each variant is given by its three light chain CDRs, as the data file delimits them; those of the parent are KSSQSVLYESRNKNSVA, WASTRES, QQYHRLPLS. Variants here have more than six changes. Kd is apparent (estimated from mating counts) and averaged on the log scale over replicates with a signal. Smaller is tighter. "nd" marks a missing value. The strain was present, yet no cells mated with the target were sequenced in any replicate, which points to weak or no binding. Of ten entries with the parent sequence, four were seen in most replicates (averages 2.2 nM to 240 nM), three in one and three in none, so single entries are noisy. Empty control strains, which show no peptide, gave a signal in 4% of pairings with all light chain designs; the median was 430 nM and 95% of these signals were weaker than 38 nM. No background was subtracted. A sequence measured in both rounds can read differently, since the two assays cover different ranges. In the paper, a design with two or fewer of six values counts as a poor binder.

CDR-L1	CDR-L2	CDR-L3	apparent Kd	replicates with signal
MISQLMNLGQFAINSVA	QAQIRNQ	QQYDRLPLA	2.0 nM	6 of 6
KISESWLYEPRNSNSVA	HASTRLQ	QQYHRLPLS	1.8 nM	6 of 6
MLSDLVKIGSRNTNSVA	DNSTRGS	QQYDRLPLS	220 nM	4 of 6
KLMGQGGHSIAHANSIA	NVDNVDA	QQYAHLPLS	17 nM	6 of 6
MFSQSVMLGSFYRNSVA	QTSTRES	QQYDRLPLS	12 nM	6 of 6
QINHQGLSANLNDRNVA	AKNLRVD	QQYNRLPLS	1.7 nM	6 of 6
KLYYHEVGEVNGSNSIA	ETDQLTF	QQYSHLPLS	4.3 µM	2 of 6
KLQQSELMESRNSNSVA	HASKRES	QDYHRLPLS	3.7 nM	6 of 6
QLAVDRLQEYEMGDAIA	GKTTRED	QQYYRLPLS	12 nM	6 of 6
HISQYVGMTSRNKNSVA	ENSTRED	QQYDRLPLS	120 nM	5 of 6
HITYGMMVHGRHSSSIA	QASTRAK	QQYDRLPLA	nd	0 of 6
TLVGNIQGGGWAKKNVA	DESTRVN	QQYYRLPLS	9.0 nM	6 of 6
KITMTMRFEQKNSNNIA	EVSTRSK	QQYVRLPLA	880 pM	6 of 6
IISHVDAYESRNKNSIA	DQSTRGS	QQYDRLPLS	2.2 nM	6 of 6
IFSQSVLMGNLTRNSVA	QASTRFS	QQYHRLPLI	230 nM	5 of 6
MISQLMNMGQFAINSVA	QASIRNA	QQYDRLPLM	53 nM	6 of 6
KISQMARVGSTHSNSIA	EEATRSD	QQYHRLPLA	2.6 nM	6 of 6
KVDMGELPNGFNRSSIA	QAEVRAP	QQYWQLPLE	29 nM	5 of 6
KISQMVRVGATVSNSIA	EEVTRAN	QQYHRLPLS	3.3 nM	6 of 6
MLGDVAFGLSRKENSVA	DNSTREN	QQYDRLPLS	75 nM	6 of 6
HIGLATMLQETVRNSVA	NNSTRED	QQYDRLPLS	370 nM	3 of 6
IVSQLMLWGYKAKNSIA	EAQTRVN	QQYDRLPLF	120 nM	5 of 6
KMVKAKSEGDRHAANIA	NANKATD	QQYYRLPLA	3.3 nM	6 of 6
HMSMLTLQGMRHMNSVA	QMTTRVN	QQYDRLPLM	9.0 nM	6 of 6
KSSPSELYEDRAFNSVA	HASQRES	QQYHRLPLS	3.6 nM	6 of 6
KLEQWTLYESRNKNSVA	NASQRES	QQYKRLPLS	410 pM	6 of 6
KFSQEVLMGDRNKNSVA	KASTRLS	QQYHRLPLS	2.4 nM	6 of 6
KIGMTLNQLMHKKNNVA	DLVTREN	QQYHRLPLS	3.3 nM	6 of 6
IVSQMMLWGWHAKNSIA	EAQTRLN	QQYDRLPLF	nd	0 of 6
KLAQYVGGESRNKSSLA	DNSTRES	QQYHRLPLS	210 nM	2 of 6
IVSQLMLWGYHAKNSIA	EASTRGN	QQYDRLPLF	1.0 nM	6 of 6
HVTEQLRPGHETQNPIA	EASHRAA	QQYAHLPLG	51 nM	6 of 6
KLGQSVGYEQRNKSRVA	DNSTRES	QQYDRLPLS	35 nM	6 of 6
KLSMITGHMSMSRNNVA	EMVTREN	QQYNRLPLS	2.2 nM	6 of 6
KMSMSELYEDRNQNSVA	SASQRLS	QQYHRLPLS	1.1 nM	6 of 6
NMNVGLNFGKIQEQAIA	EVEDRES	QQYARLPLT	12 nM	6 of 6
MISQVMNTLTRNGNNVA	DLAEREN	QQYFRLPLS	nd	0 of 6
KISQSVNFFGHAINSVA	EMETREN	QQYDRLPLS	14 nM	6 of 6
HLSLPWQLGHDSTNAVA	NDSTLMT	QHYNRLPLS	17 nM	5 of 6
KLQNSQEYESRMKNSVA	NASQRLE	QQYHRLPLS	800 pM	6 of 6
KISQMVKVGMTHGNSIA	EEQTRAK	QQYHRLPLS	35 nM	6 of 6
KMSQSYLMESRNCNSVA	NASTRLW	QQYHRLPLS	2.1 nM	6 of 6
IVSQLMLWGWHAKNSIA	EAQTRLN	QQYERLPLF	7.2 nM	6 of 6
MITEGQLGENKNSSNIA	SQNQKTD	QQYQRLPLV	14 nM	5 of 6
KLSCSELYEEPNSNSVA	NASTRPM	QQYHRLPLS	1.9 nM	6 of 6
MVSMMPNEPTRYSNAIA	DHSQRNT	QQYDRLPLS	12 nM	6 of 6
HITYGMMVAGRHSSSIA	QAETRAK	QQYDRLPLS	5.5 nM	6 of 6
KISGYLQKESKNKNSVA	EMVNRES	QQYDRLPLA	7.7 nM	6 of 6
QIFGKLQEHGNQKANVA	QGVESRN	QQYFVLPLT	nd	0 of 6
TISQMTSLFSQTINNVA	EVSTREA	QQYDRLPLA	16 nM	6 of 6
KLVQFMNRGTHHTSNIA	DAVNRLD	QQYARLPLA	1.5 nM	6 of 6
KVYASTMLESHDKNSIA	DLSTRGN	QQYHRLPLS	1.1 nM	6 of 6
NIQDNLGGLLSQINSVA	STEELSD	QSYHRLPLS	7.1 nM	6 of 6
KSEDGVDDEERNDNSVA	NASTRES	QQYHRLPLS	74 nM	6 of 6
NLYQAMNFLGRVMNSIA	DASTIPD	QQYHRLPLS	46 nM	1 of 6
MVTQMAMTGMMSKRSVA	NAEMRAD	QQYHRLPFI	2.2 nM	6 of 6
KLSMVTGHMSMSRNNVA	EMVTREN	QQYDRLPLA	2.7 nM	6 of 6
KIAMSMNMTSHHINSVA	QSTTREE	QQYNHLPLS	1.7 nM	6 of 6

A selection of 3 entries from above:

CDR-L1	CDR-L2	CDR-L3	apparent Kd	replicates with signal
KLSMVTGHMSMSRNNVA	EMVTREN	QQYDRLPLA	2.7 nM	6 of 6
MVSMMPNEPTRYSNAIA	DHSQRNT	QQYDRLPLS	12 nM	6 of 6
KISGYLQKESKNKNSVA	EMVNRES	QQYDRLPLA	7.7 nM	6 of 6